Source: US20110039935A1, “USE OF PHARMACOLOGICALLY ACTIVE CHEMICAL COMPOUNDS” (ENTRESS AB, priority 2007, published 2011)

Experiments:
[1] = for blood level of AKG: after enteral administration
[2] = tested on: abdominal aorta sections of elderly mice; conditions: first stretch series (FIG. 4)
Experimental: This time, experimental subjects that were in need of increased artery elasticity for a more general reason, namely advanced age, were studied.
Female NMRI mice, aged 50 weeks at the start of the trial, were housed at the animal facilities of the Department of Cell & Organism Biology, Lund University, Sweden. The animals were raised under the same conditions with a 12/12 hour light-dark cycle. Mice were fed rodent pellets ad libitum (Altromin no. 1314 Spezialfutterwerke, Lage, Germany) and given free access to drinking water. […] Mice allocated to Group 3 were only fed rodent pellets and were considered to be the Control group (n=6). […]
Aorta sections were immersed into oxygenated and thermostatically controlled chambers (37° C.), having an internal depth and diameter of 5.5 and 3.2 cm, respectively, and holding 44 ml of phosphate buffered saline (0.15 M PBS, pH 7.4) comprising in mM; NaCl 136.91, KCl 2.68, Na2HPO4 8.08 and NaH2PO4 1.66. Force was measured using a FTO3 force displacement transducer (Grass Instrument, West Warwick, R.I.) connected to a home-built bridge amplifier which was interfaced with a 8S PowerLab A/D Converter (ADInstruments, Chalgrove, Oxfordshire, UK). […]
Aorta sections were suspended vertically, and in duplicate. The recorded signal was adjusted to zero for un-tensioned aorta sections with the aid of an offset dial mounted on the pre-amplifier unit. […]

SMILES | blood level of AKG [1] | effect on arterial elasticity compared with the control mice [2] | uptake after enteral administration ([1]; enteral administration)
O=C([O-])CCC(=O)C(=O)[O-].[Na+].[Na+] [Na−AKG, sodium alpha-ketoglutarate] | exceed 10 μg/ml | significant effect | –
O=C([O-])CCC(=O)C(=O)[O-].[Ca+2] [Ca−AKG, calcium alpha-ketoglutarate] | never or seldom observed | – | slowed uptake with longer lasting effect
